The target of this test is PRC2 complex (EZH2 Y641F/EED/SUZ12/RbAp48/AEBP2) (Homo sapiens (Human), UniProt Q15910, Y641F). Briefly: Activity of a compound to PRC2 complex (EZH2 Y641F), HTRF. Particulars: read-out: IC50 (EZH2_Y641F), class symbols.

By UniProt entry, the sequences of proteins in these tests, tags left out.
UniProt Q15910, whole entry Y641F: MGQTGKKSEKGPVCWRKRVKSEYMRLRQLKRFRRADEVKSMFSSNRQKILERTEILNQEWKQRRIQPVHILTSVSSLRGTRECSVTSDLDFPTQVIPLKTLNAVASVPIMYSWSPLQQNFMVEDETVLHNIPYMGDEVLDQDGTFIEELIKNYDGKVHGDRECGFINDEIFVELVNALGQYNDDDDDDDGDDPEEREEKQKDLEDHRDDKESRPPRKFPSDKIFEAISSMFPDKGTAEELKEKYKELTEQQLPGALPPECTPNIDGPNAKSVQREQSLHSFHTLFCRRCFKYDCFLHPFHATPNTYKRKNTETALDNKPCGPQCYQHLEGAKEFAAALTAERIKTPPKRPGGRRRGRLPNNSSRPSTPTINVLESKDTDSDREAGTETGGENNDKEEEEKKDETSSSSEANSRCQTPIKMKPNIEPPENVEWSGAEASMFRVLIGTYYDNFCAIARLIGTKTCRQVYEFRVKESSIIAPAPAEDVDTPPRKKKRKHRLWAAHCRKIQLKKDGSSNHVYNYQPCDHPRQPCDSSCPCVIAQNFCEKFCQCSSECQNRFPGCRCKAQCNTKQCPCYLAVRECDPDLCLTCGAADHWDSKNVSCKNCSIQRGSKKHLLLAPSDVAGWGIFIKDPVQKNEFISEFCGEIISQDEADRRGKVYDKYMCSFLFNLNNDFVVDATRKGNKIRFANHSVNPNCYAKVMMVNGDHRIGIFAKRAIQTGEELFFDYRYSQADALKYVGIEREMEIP

“N-((4,6-dimethyl-2-oxo-1,2-dihydropyridin-3-yl)methyl)-6-methyl-5-(1-morpholinylethyl)-1-(3,5-dimethylphenyl)indolizine-7-amide [Example 94]”: the IC50 is less than 100 nM.

(Values after patent US10968215B2 (SHANGHAI HAIHE PHARMACEUTICAL CO., LTD., priority 2016, dated 2021).)
